B1: HUMAN K108-E120, N124-K133 (peptide)
peptide: KKYFGRSLELYRENSVLLKLGIK
notes: K108-K133 without the three residues L121, D122, L123

Biological target: T1, G-Actin from rabbit muscle (rabbit, UniProt P68135 3-377)
Assay: solid-phase ELISA: peptide added to immobilized rabbit muscle G-actin (500 ng/well), detected with rabbit anti-rhtrRNASET2 and peroxidase goat anti-rabbit IgG, A650

| binding result | Binder |
| --- | --- |
| no binding | KKYFGRSLELYRELDL (also called K108-L123 (16 aa)) [peptide K108-L123] |
| no binding | SLELYRELDLNSVLLKLGIK [HUMAN S114-K133] |
| no binding | KKYFGRSLELYRELDLNSVLLK [HUMAN K108-K129] |
| no binding | KKYFGRSLELYRELDLNSVL [HUMAN K108-L127] |
| no binding | RSLELYRELDLNSVLLKLGIK [HUMAN R113-K133] |
| no binding | KKYFGRSLELYRELDLNSVLLKL [HUMAN K108-L130] |
| no binding | KKYFGRSLELYRELDLNS [HUMAN K108-S125] |
| no binding | KKYFGRSLELYRELDLNSVLL [HUMAN K108-L128] |
| no binding | KKYFGRSLELYRELDLN [HUMAN K108-N124] |
| no binding | B1 |
| no binding | KKYFGRSLELYRELDLNSV [HUMAN K108-V126] |
| no binding | GRSLELYRELDLNSVLLKLGIK [HUMAN G112-K133] |

Biological target: T1, G-Actin from rabbit muscle
Assay: as above
Remark: another data set of the same source

| binding result | Binder |
| --- | --- |
| no binding | KKYFGRSLELYRELD [HUMAN K108-D122] |
| no binding | ALNSQKKYFGRSLELYR [HUMAN A103-R119] |
| no binding | KKYFGRSLELYRE [HUMAN K108-E120] |
| no binding | KKYFGRSLELYREL [HUMAN K108-L121] |

Biological target: T1, G-Actin from rabbit muscle
Assay: solid-phase ELISA, immobilized rabbit G-actin

| binding result | Binder |
| --- | --- |
| no binding | SINYYQV [SEQ ID NO 59 (C-terminal portion of SEQ ID NO: 58)] |
| no binding | ELDLNSVLLKLGIKPSINYYQV (also called E120-V141) [SEQ ID NO 58 (amino acids 120-141 of native human RNASET2)] |

Reference: US20160340659A1 (YISSUM RESEARCH AND DEVELOPMENT COMPANY OF THE HEBREW …, published 2016)
